Experimental data: PubChem BioAssay AID1066 (SRMLSC, 2008)
This is a selection; strong and weak results do not stand in their true shares. Active and inactive are the calls of the source.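 How the source made its calls: active means inhibition above a set limit, the median over all tested compounds plus 3 SD (cut at about 9.5% in these data); inconclusive means no clear call, values can overlap the other calls; inactive means the rest.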

Each compound was assayed on HMG-CoA reductase (Enterococcus faecalis, mvaE) (assay: inhibitors of E. faecalis class II HMGR, primary screen, biochemical, Enterococcus faecalis (AID 1066;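 further: enzyme runs in reverse so mevalonate oxidation gives rising NADPH absorbance; 0% = complete reaction with DMSO and 100% = background rate lacking mevalonate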)). Details: purified E. faecalis HMGR, NADPH absorbance 340 nm kinetic; at 10 µM; hits give high values.

SMILES	inhibition
Cc1cccc(C)c1OP(C)(=O)Nc1ccc(SC(F)(F)F)cc1 (centres undefined)	inactive: 2.33%
CP(=O)(Oc1ccccc1)OC(c1ccccc1)C(F)(F)F (centres undefined)	inactive: -3.08%
CP(=O)(NC(=O)Nc1ccccc1)Oc1ccccc1 (centres undefined)	inactive: -6.4%
Cc1cc(C)cc(OP(C)(=O)Nc2ccc(SC(F)(F)F)cc2)c1 (centres undefined)	inactive: 1.41%
CCOP(C)(=S)SCC(=O)NC(C)C(=O)O (centres undefined)	inactive: -5.28%
CCOC(=O)c1ccc(NP(C)(=O)Oc2ccc(OC)cc2)cc1 (centres undefined)	inactive: -8.7%
CP(=O)(Nc1ccccn1)Oc1ccc(Cl)cc1 (centres undefined)	inactive: -3.81%
CP(=S)(Nn1cnnc1)Oc1ccccc1 (centres undefined)	inactive: -3.36%
COc1ccccc1OP(C)(=O)Nc1ccccc1 (centres undefined)	inactive: 0.41%
CP(=O)(Nc1ccccc1Br)Oc1ccccc1 (centres undefined)	inactive: -4.96%
CC(C)(C)c1ccc(OP(C)(=O)Nc2ccc(SC(F)(F)F)cc2)cc1 (centres undefined)	inactive: -6.28%
Cc1cccc(C)c1OP(C)(N)=O (centres undefined)	inactive: -0.59%
O=[N+]([O-])c1ccc2c(c1)C=Nc1ccccc1O2	inactive: 2.86%
CCOC(=O)c1ccc(NP(C)(=O)Oc2ccccc2)cc1 (centres undefined)	inactive: -1.17%
COc1ccccc1OP(C)(=O)Nc1ccc(C)cc1 (centres undefined)	inactive: -4.68%
Cc1ccc(NP(C)(=O)Oc2ccccc2)c(C)c1 (centres undefined)	inactive: 1.57%
COc1ccccc1OP(C)(=O)Nc1cc(Cl)ccc1C (centres undefined)	inactive: 1.53%
COc1ccc(OP(C)(=O)Nc2cccc(F)c2)cc1 (centres undefined)	inactive: -0.98%
Cc1cc(C)cc(OP(C)(N)=O)c1 (centres undefined)	inactive: -5.45%
CCN(CC)CCCOC(=O)C(O)(c1ccccc1)c1ccccc1	inactive: -0.65%
Cc1cc(C)cc(OP(C)(=O)Nc2ccc(C)cc2C)c1 (centres undefined)	inactive: -4.06%
CCOC(=O)c1ccc(NP(C)(=O)Oc2cc(C)cc(C)c2)cc1 (centres undefined)	inactive: 0.44%
CP(=O)(Nc1cccc(Br)c1)Oc1ccccc1 (centres undefined)	inactive: 1.14%

SMILES	inhibition
Cc1cc(C)cc(OP(C)(=O)Nc2ccccn2)c1 (centres undefined)	inactive: 3.07%
Cc1ccc(C)c(NP(C)(=O)Oc2ccccc2)c1 (centres undefined)	inactive: 2.74%
CC1=NCCc2c1[nH]c1ccccc21.O=[N+]([O-])c1cc([N+](=O)[O-])c(O)c([N+](=O)[O-])c1	inactive: -3.42%
COc1ccccc1OP(C)(=O)Nc1c(C)cccc1C (centres undefined)	inactive: -8.15%
CN1CCCCC1COC(=O)C1(O)c2ccccc2CCc2ccccc21 (centres undefined)	inactive: -5.45%
CP(=O)(Nc1ccc(SC(F)(F)F)cc1)Oc1ccccc1 (centres undefined)	inactive: 0.7%
CCCOc1ccc(NP(C)(=O)Oc2ccc(Cl)cc2)cc1 (centres undefined)	inactive: 1.51%
O=[N+]([O-])c1cc([N+](=O)[O-])c(-n2nnc3ccccc32)c([N+](=O)[O-])c1	inactive: -1.31%
Cc1nc2ccc3ccccc3c2s1.O=[N+]([O-])c1cc([N+](=O)[O-])c(O)c([N+](=O)[O-])c1	inactive: -0.02%
CCOP(C)(=S)SCC(=O)NC(C)(CC)C(=O)O (centres undefined)	inactive: 0.67%
CP(=O)(Nc1ccc2c(c1)OCCO2)Oc1ccccc1 (centres undefined)	inactive: -4.16%
Cc1ccccc1NP(C)(=O)Nc1ccccc1C	inactive: -12.1%
COc1ccc(OP(C)(=O)Nc2cccc(Br)c2)cc1 (centres undefined)	inactive: 1.56%
COc1ccc(NP(C)(=O)Oc2ccccc2OC)cc1 (centres undefined)	inactive: 3.53%
CN(C)CCOC(=O)C(O)(c1ccccc1)C1CCCCC1 (centres undefined)	inactive: 0%
O=[N+]([O-])c1cc([N+](=O)[O-])c(NCC2CCS(=O)(=O)C2)c([N+](=O)[O-])c1 (centres undefined)	inactive: -7.33%
COc1ccc(OP(C)(=O)Nc2ccc(SC(F)(F)F)cc2)cc1 (centres undefined)	inactive: -3.13%
CCOC(=O)c1ccc(NP(C)(=O)Oc2ccc(F)cc2)cc1 (centres undefined)	inactive: -0.25%
CCN(CC)CCCOC(=O)C(O)(c1ccccc1)C1CCCCC1 (centres undefined)	inactive: -1.13%
CP(=O)(Nc1ccccc1)Oc1ccc(F)cc1 (centres undefined)	inactive: 4.07%
CC(C)c1ccc(OP(C)(=O)Nc2ccc(SC(F)(F)F)cc2)cc1 (centres undefined)	inactive: -2.37%
CP(=O)(Nc1ccccc1F)Oc1ccccc1 (centres undefined)	inactive: -3.93%
O=C(OCCN1CCN(CCOCc2ccccc2)CC1)C(O)(c1ccccc1)c1ccccc1	inactive: -3.37%

SMILES	inhibition
CN(C)CCOC(=O)C(O)(c1ccccc1)C1CCCC1 (centres undefined)	inactive: 1.25%
COc1ccc(OP(C)(=O)Nc2ccccn2)cc1 (centres undefined)	inactive: -3.28%
O=[N+]([O-])c1cc([N+](=O)[O-])c(Nc2ccccn2)c([N+](=O)[O-])c1	inactive: -1.71%
Cc1c(NP(C)(=O)Oc2ccc(C(C)C)cc2)c(=O)n(-c2ccccc2)n1C (centres undefined)	inactive: -6.91%
CCc1ccc(OP(C)(=O)O)cc1	inactive: -11.1%
CP(=O)(Nc1ccccn1)Oc1ccccc1 (centres undefined)	inactive: -1.58%
COc1ccccc1OP(C)(=O)Nc1ccc(C)cc1C (centres undefined)	inactive: -2.46%
Cc1cc(C)cc(OP(C)(=O)Nc2cccc(C(F)(F)F)c2)c1 (centres undefined)	inactive: -8.48%
COc1ccc(OP(C)(=O)Nc2ccccc2Br)cc1 (centres undefined)	inactive: -4.68%
COc1ccccc1OP(C)(=O)Nc1ccc(C)c(C)c1 (centres undefined)	inactive: -5.12%
Cc1nc2ccc3ccccc3c2o1.O=[N+]([O-])c1cc([N+](=O)[O-])c(O)c([N+](=O)[O-])c1	inactive: -0.29%
CP(=O)(OCCOc1ccccc1)OCCOc1ccccc1	inactive: 0.95%
CP(=O)(Nc1ccc(Cl)cc1Cl)Oc1ccccc1 (centres undefined)	inactive: 0.93%
CP(=O)(OC12CC3CC(CC(C3)C1)C2)OC12CC3CC(CC(C3)C1)C2	inactive: -1.43%
CCOC(=O)c1ccc(NP(C)(=O)Oc2ccc(Cl)cc2)cc1 (centres undefined)	inactive: -0.04%
CCN(CC)CC(O)COC(=O)C(O)(c1ccccc1)C1CCCCC1 (centres undefined)	inactive: -3.41%
COc1ccc(OP(C)(=O)Nc2ccc(Br)cc2)cc1 (centres undefined)	inactive: 2.13%
CP(=O)(Oc1ccccc1)N1CCOC1=O (centres undefined)	inactive: -10.4%
CCc1ccc(OP(C)(=O)Nc2cccnc2)cc1 (centres undefined)	inactive: 0.99%
CP(=O)(Nc1ccc(Cl)cc1)Oc1ccc(F)cc1 (centres undefined)	inactive: -0.14%
CC(C)(C)c1ccc(OP(C)(=O)O)cc1	inactive: -1.06%
COc1ccccc1OP(C)(=O)Nc1ccccc1Br (centres undefined)	inactive: -0.32%
CN(C)C(=O)c1c([N+](=O)[O-])cc([N+](=O)[O-])cc1[N+](=O)[O-]	inactive: -1.32%
